From patent EP0969015A2, “Peptide diagnostic markers for human disorders” (Ortho-Clinical Diagnostics, Inc., priority 1998, dated 2000) come the findings set out here.

A short description of this data set: Stability of peptides in urine samples. Particulars: compared with the gluten/casein related peptides; not studied in a systematic manner.

Consider “NH4-PheLeuPheGlnProGlnArgPhe-COOH [morphine modulating neuropeptide]”, for which the stability in urine entry is “more stable in urine than the gluten/casein related peptides”.
